Tests used:
[1] = biological target: T1, PSMA (LS174T-PSMA cells) (Homo sapiens, UniProt Q04609); test: Alternative internalization assay in LS174T-PSMA cells; details: 2 h at 37° C., tested form: drawn as the indolium cation with four f
[2] = Lipophilicity, LogD of radiolabeled ligands in PBS (pH 7.4) / n-octanol; details: radiolabeled ligand, tested form: drawn as the indolium cation with four f
[3] = biological target: T1, PSMA (LS174T-PSMA cells); test: Competitive binding assay against 111In-labeled PSMA-617 using LS174T-PSMA cells; details: on ice 2 h, 111In-labeled PSMA-617 as competitor, unlabeled ligand 0.01-300 nM; tested form: drawn as the indolium cation with four f

Sequences of proteins named here, by UniProt entry; tags and fusion partners are left off.
UniProt Q04609, whole entry: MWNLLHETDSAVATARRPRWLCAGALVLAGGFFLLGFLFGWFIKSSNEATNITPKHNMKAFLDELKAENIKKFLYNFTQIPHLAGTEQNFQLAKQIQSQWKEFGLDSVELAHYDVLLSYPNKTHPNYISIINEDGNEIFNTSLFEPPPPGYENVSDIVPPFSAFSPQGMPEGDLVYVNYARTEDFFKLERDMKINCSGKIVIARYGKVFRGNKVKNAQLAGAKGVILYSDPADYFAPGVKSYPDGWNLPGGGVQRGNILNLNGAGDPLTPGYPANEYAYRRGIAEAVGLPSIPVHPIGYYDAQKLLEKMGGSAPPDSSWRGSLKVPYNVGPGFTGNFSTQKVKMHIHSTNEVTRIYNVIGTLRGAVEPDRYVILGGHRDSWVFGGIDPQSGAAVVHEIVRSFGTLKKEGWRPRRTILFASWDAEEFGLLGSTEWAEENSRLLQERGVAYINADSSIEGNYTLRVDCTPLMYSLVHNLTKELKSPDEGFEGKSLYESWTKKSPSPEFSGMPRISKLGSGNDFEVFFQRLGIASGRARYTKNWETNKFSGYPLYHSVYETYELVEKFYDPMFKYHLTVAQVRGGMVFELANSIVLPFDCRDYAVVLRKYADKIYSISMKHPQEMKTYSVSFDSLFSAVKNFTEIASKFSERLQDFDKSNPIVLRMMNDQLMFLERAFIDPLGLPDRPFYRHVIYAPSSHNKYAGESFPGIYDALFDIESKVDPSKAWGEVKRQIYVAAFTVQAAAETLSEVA

Internalization Ratio (%) [1]: 71.9 +/− 13.7%
LogD [2]: -2.4
IC50 [3]: 0.359 µM
Structure (SMILES): CC(=O)SCC(=O)NCC(=O)NCC(=O)NCC(=O)NC(CCCCn1nnc2c1-c1ccccc1CN(C(=O)CCNC(=O)CCCCC[N+]1=C(/C=C/C3=C(Oc4ccc(S(=O)(=O)O)cc4)C(=C/C=C4/N(CCCCS(=O)(=O)[O-])c5ccc(S(=O)(=O)O)cc5C4(C)C)/CCC3)C(C)(C)c3cc(S(=O)(=O)O)ccc31)c1ccccc1-2)C(=O)NCCCC[C@H](NC(=O)[C@H](CCC(=O)O)NC(=O)c1cccnc1)C(=O)NCc1ccc(C(=O)N[C@@H](Cc2ccc3ccccc3c2)C(=O)NCCCC[C@H](NC(=O)N[C@@H](CCC(=O)O)C(=O)O)C(=O)O)cc1 (stereo partly drawn)

Reference: patent publication US20250332290A1, “PSMA-TARGETING LIGANDS FOR MULTIMODAL APPLICATIONS” (STICHTING RADBOUD UNIVERSITAIR MEDISCH CENTRUM, priority 2021, published 2025)
